Results reported in patent US11738082B2, “High concentration protein formulations with reduced viscosity” (Bhami's Research Laboratory, Pvt. Ltd., priority 2017, dated 2023).

System: Human Gamma Globulin (HGG), GLOBUCEL®
Assay: Viscosity of aqueous solutions of Human Gamma Globulin (Cambridge VISCOlab5000 or DV2T cone and plate viscometer)
Details: HGG 297 mg/mL; excipient 10 mg/mL (31 mM); 25 mM histidine buffer pH 6.0; contains 0.04% EDTA, 0.1% octyl glucopyranoside, 50 mM NaCl, 10 mg/mL sorbitol

In the case of Caffeine Nicotinate, the “Viscosity (cP) @ 25° C.” value is reported as 37 cP.
